From paper PMC9266650 come the findings set out here.

This assay has as its target fluorescein-5-maleimide (FITC)-labeled PFN1(T44C) (human) (UniProt P07737). The assay can be described thus: fluorescence polarisation.

“And” between values parts separate entries of the source, which are not always exact repeats. Equal values may be shown once.

Consider “T148-ADP-ribosylated-actin (100% TccC3-ADP-ribosylated actin) (from UniProt P68135 1-377) (natural protein)”, for which the fold reduction of affinity against unmodified actin is 5.2 fold and 3.8 fold.
